From article PMC4691061, “Repositioning of Thiourea-Containing Drugs as Tyrosinase Inhibitors” (International Journal of Molecular Sciences, 2015)

The chains behind the UniProt entries cited, without tags or fusion partners. Residues count along the entry.
UniProt C7FF04, 1-392: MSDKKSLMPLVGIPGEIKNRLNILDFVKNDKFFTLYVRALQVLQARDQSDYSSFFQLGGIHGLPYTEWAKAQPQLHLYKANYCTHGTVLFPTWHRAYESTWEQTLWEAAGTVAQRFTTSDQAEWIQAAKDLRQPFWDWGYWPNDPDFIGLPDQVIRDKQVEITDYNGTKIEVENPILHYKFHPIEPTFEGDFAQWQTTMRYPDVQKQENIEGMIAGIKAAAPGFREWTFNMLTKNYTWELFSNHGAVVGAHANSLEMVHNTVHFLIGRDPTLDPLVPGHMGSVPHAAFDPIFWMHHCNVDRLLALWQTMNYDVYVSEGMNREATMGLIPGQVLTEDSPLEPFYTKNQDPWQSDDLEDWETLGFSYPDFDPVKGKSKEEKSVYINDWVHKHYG

Target: mushroom tyrosinase (Agaricus bisporus, UniProt C7FF04)
Assay: Mushroom tyrosinase enzyme activity inhibition assay
Format: biochemical

| Structure (SMILES) | LE (ligand efficiency) |
| --- | --- |
| Cn1cc[nH]c1=S [compound 5, Methimazole] | 0.81 |
| CCCc1cc(=O)[nH]c(=S)[nH]1 [compound 9, Propylthiouracil] | 0.44 |
